Test results published in paper PMC5956019, “A rapid solution-based method for determining the affinity of heroin hapten-induced antibodies to heroin, its metabolites, and other opioids” (Analytical and Bioanalytical Chemistry, 2018).
Where two headings read alike, the source gives them in different places.

Experiments:
6-AmHap-Abs [1] = assay: Heterologous competition ELISA; assay type: binding, mouse; details: read-out: Competition ELISA Heterologous, IC50
6-AmHap-Abs [2] = details: read-out: Competition ELISA Homologous, IC50; ref Sulima et al [3]; cited from earlier work
[3] = cited from earlier work
serum esterases = assay: Heroin degradation in buffer and in pre-immune and post-immune sera (UPLC/MS/MS)

3,6-diacetylmorphine
IC50 (6-AmHap-Abs [1]): 11.1 nM
IC50 (6-AmHap-Abs [2]): 1270 nM
t1/2 ([3]; degradation of heroin in humans, Fig. 1a): 3 to 4 min
half-life (t1/2) in serum ([3]; in serum): 3 to 4 min
heroin degradation in buffer alone (serum esterases; DPBS, absence of serum, 3 h, RT, 5, 10, 20, or 4000 nM heroin): no heroin degradation was observed
% Heroin (serum esterases; dilute post-immune serum with esterase inhibitors BNPP and iso-OMPA, 4000 nM heroin, 1 h): 100%
t1/2 (serum esterases; dilute post-immune serum with esterase inhibitors, 4000 nM heroin): undefined
% Heroin (serum esterases; dilute pre-immune serum (1:200), after 1 h, regardless of starting heroin concentration): 27.7 ± 8.0%
% Heroin (serum esterases; dilute pre-immune serum (1:200), after 3 h, regardless of starting heroin concentration): 4.3 ± 2.5%
% Heroin (serum esterases; dilute pre-immune serum with esterase inhibitors BNPP and iso-OMPA, 4000 nM heroin, 1 h): 91.76 ± 8.64%
t1/2 (serum esterases; dilute pre-immune serum with esterase inhibitors, 4000 nM heroin): undefined
heroin degradation in post-immune serum (serum esterases; post-immune serum (~10 nM 6-AmHap binding sites), starting heroin less than or equal to 10 nM, 3 h): No significant degradation
t1/2 (serum esterases; post-immune serum, 5 nM heroin): undefined
t1/2 (serum esterases; post-immune serum, 10 nM heroin): undefined
t1/2 (serum esterases; post-immune serum, 20 nM heroin): undefined
% Heroin (serum esterases; post-immune serum, 20 nM heroin, after 1 h): 84.1 ± 3.4%
% Heroin (serum esterases; post-immune serum, 20 nM heroin, after 3 h): 56.1 ± 3.3%
t1/2 (serum esterases; post-immune serum, 4000 nM heroin, 99% confidence interval): 31.6 to 56.8 min
heroin degradation in post-immune serum (serum esterases; post-immune serum, 4000 nM heroin, after 1 h): extensive degradation
t1/2 (serum esterases; pre-immune serum, 5 nM heroin, 99% confidence interval): 25 to 32.5 min
t1/2 (serum esterases; pre-immune serum, 10 nM heroin, 99% confidence interval): 33.3 to 49.9 min
t1/2 (serum esterases; pre-immune serum, 20 nM heroin, 99% confidence interval): 26.9 to 33.4 min
t1/2 (serum esterases; pre-immune serum, 4000 nM heroin, 99% confidence interval): 18.3 to 32.7 min
